In PMC4207122 (Cell biology and toxicology, 2013):

Legend:
[1] = system: 22Rv1 human prostate cancer cells; assay: Differential nuclear staining; format: cell-based
[2] = system: all the cancer cells lines studied
[3] = system: DU145 human prostate carcinoma cells; assay: Differential nuclear staining; format: cell-based
[4] = system: LNCaP human prostate cancer cells; assay: Differential nuclear staining; format: cell-based
[5] = system: human cervical HeLa cancer cells; assay: Differential nuclear staining; format: cell-based
[6] = system: YT NK-like lymphoblastic lymphoma cells; assay: Differential nuclear staining; format: cell-based

**Q.** What does the source list for `CC(=O)N1CCN(c2ccc(OCC3COC(Cn4ccnc4)(c4ccc(Cl)cc4Cl)O3)cc2)CC1` (stereo not drawn) [KTZ, ketoconazole]?
**A.** Selectivity Index (S.I.) [1]: 24.2 1/>13; cytotoxicity against cancer cell lines (in words) [2]: moderate cytotoxicity; Selectivity Index (S.I.) [3]: 28.6 1/>11; Selectivity Index (S.I.) [4]: 27.9 1/>11; Selectivity Index (S.I.) [5]: 66.7 1/>4; Selectivity Index (S.I.) [6]: 4.9 1/>64
